These are literature values, as cited in US11548845B2, “Methods of isolating phenols from phenol-containing media” (WISCONSIN ALUMNI RESEARCH FOUNDATION, priority 2019, dated 2023).

The term Log P denotes a log measure of how a compound divides between an organic and an aqueous phase.

For data set [1] the following is noted: values from literature; cited from earlier work.
For data set [2] the following is noted: surfactants of Table 2; cited from earlier work.

For the substance proanthocyanidin, in data set [1], the “Log P” value is on record as 10.
On to sucrose stearate, for which, in data set [2], the HLB value was 20.
